# Measured affinities in a library of Ab-14 heavy chain variants

The target is the same throughout: PDVDLGDISGINAS, from the HR2 region of SARS-CoV-2 spike.

Parent scFv Ab-14: VH joined to VL by three GGGGS repeats. Changes lie in the heavy chain CDRs alone.
VH: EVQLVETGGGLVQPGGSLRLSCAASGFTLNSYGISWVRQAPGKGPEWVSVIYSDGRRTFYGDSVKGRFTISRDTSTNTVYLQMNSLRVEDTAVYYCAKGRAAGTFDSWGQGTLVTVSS
VL: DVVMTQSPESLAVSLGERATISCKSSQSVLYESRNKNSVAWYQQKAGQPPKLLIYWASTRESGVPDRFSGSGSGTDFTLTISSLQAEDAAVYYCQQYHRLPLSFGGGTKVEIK

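This is the validation round: designs drawn from the data on random variants, tested in the same kind of assay. Group labels follow the data file (Ctrl: baseline library sampled from a position-specific scoring matrix, with some repeated check sequences; Rand: our label for a block that the file lists under HC and that is probably the random mutants of the ten best first-round binders; En: ensemble of fine-tuned language models; GP: Gaussian process model; GPLM: also part of the Gaussian process libraries; HC: hill climbing; Gen: genetic algorithm; Gibbs: Gibbs sampling; a sequence that several methods proposed may carry one label only). In AlphaSeq, yeast of one mating type display the scFv and yeast of the other type display the target. Mating (16 h, 30 °C) was followed by selection of diploids and sequencing of their barcodes. Read counts were normalised to the haploid input and turned into Kd by a linear fit to BCL2-family pairs of known affinity, for each replicate. The assay was run in six technical replicates.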

Each variant is given by its three heavy chain CDRs, as the data file delimits them; those of the parent are GFTLNSYGIS, VIYSDGRRTFYGDSVK, GRAAGTFDS. The read-out is the apparent dissociation constant on a log10 scale (nM): the lower, the stronger. The mean shown is taken over the replicates in which the pair was detected. "no signal" means that the variant was in the library but no mating with the target was seen in any replicate; the authors take this as a sign of poor binding, and no number exists. Of ten entries with the parent sequence, four were seen in most replicates (averages 0.34 to 2.37), three in one and three in none, so single entries are noisy.

"log10 Kd (nM), mean",seen in,signal with controls,CDR-H1,CDR-H2,CDR-H3,group
no signal,0/6,2/18,GFPLNSYGIS,VIYADGRRTFYGDSVK,GRAKGTFDS,Ctrl
0.08,6/6,0/18,GFSLNEYGIS,VIYSDGRRTFYGDSVK,GRSAGTFDT,GPLM_Gibbs
no signal,0/6,1/18,GFDLNSYGIS,VIYSDGRRTFYGDSVK,GRAAGQFWS,GP_HC
no signal,0/6,0/18,GFTLNEYGIS,VIYSDGKRTQYMDSVK,GRAAGTFDS,GP_HC
0.46,6/6,0/18,GFELNSYGIS,VIYSDGRRTFYADSVK,GQTAGTFDA,GP_Gibbs
0.48,6/6,0/18,GFDLNSYGIS,VIYSDGRRTFYLDSVK,GHAAGTFDS,GP_Gibbs
no signal,0/6,1/18,GFNIDEYGIS,VIYADGVRTAYADKVK,GFNQVLSVD,En_Gibbs
1.58,2/6,0/18,GFDLNEYGIS,VIYADGLRTFYADSVK,GKNAGTIDV,En_HC
no signal,0/6,0/18,GFTLNEYGIS,VIYSDGRRTFYGDSVK,GRAAGTFRF,GPLM_HC
0.65,6/6,0/18,GFTLNHYGIS,VIYSDGRRTFYGDSVK,GREAGTFDS,Ctrl
-0.49,6/6,0/18,GFDLDEYGIS,VIYADGKRTAYADSVK,GNLAGTFDV,En_Gen
-0.11,6/6,0/18,GFSLNSYGIS,VIYSDGRRTFYDDSVK,GSLAGTFDS,GP_HC
0.87,6/6,0/18,GFSLNSYGIS,VIYSDGRRTFYGDSVK,GQIAGTFDS,GPLM_Gen
no signal,0/6,0/18,GFTLNSYGIS,VIYSDGRRTFYGDSVK,GREAGTFDV,GPLM_Gen
0.97,2/6,0/18,GFQLNEYGIS,VIYSDGRRTFYGDSVK,GWAAGTFDS,GP_Gen
0.34,6/6,0/18,GFDLNEYGIS,VIYADGSRTAYADDVK,GGNAGTFDV,En_Gen
-0.64,6/6,0/18,GFDLNEYGIS,VIYADGVRTAYADKVK,GETAGTFDV,En_Gen
2.22,1/6,0/18,GFTLNSYGIS,VIYSDGRRTFYSDSVK,GAAIGTFDS,Ctrl
0.11,6/6,0/18,GFDLNSYGIS,VIYSDGKRTFYSDSVK,GRTAGTFDS,GP_Gen
0.71,6/6,1/18,GETLNSYGIS,VIYSDGRRTFYSDSVK,GRAAGTFDS,Ctrl
0.25,6/6,0/18,GFTLNSYGIS,VIYSDGRRTFYGDSVK,GRAAGTFLS,Ctrl
1.14,6/6,0/18,GFTLNNYGIS,VIYSDGKRTFYSDSVK,GRAAGTFDS,GPLM_HC
0.40,6/6,0/18,GFDLNSYGIS,VIYSDGRRTFYGDSVK,GWTAGTFDS,GPLM_Gibbs
no signal,0/6,0/18,GVTLNSYQIS,VIYSDGRRTHYSDSVK,GRAGGTFDS,Rand
-0.09,6/6,0/18,GFDLNEYGIS,VIYADGMRTAYTDSVK,GQNAGTFDT,En_Gen
-0.64,6/6,0/18,GFDLNEYGIS,VIYADGRRTFYSDSVK,GQEAGTFDV,En_HC
1.28,5/6,0/18,KFDLNSYGIS,VIYSDGKRTFYIDSVK,GRTAGTFDS,GP_Gibbs
no signal,0/6,0/18,GFDIKEYGIS,VIYADGQRTAYKPTVK,GNHTGLVFI,En_Gibbs
-0.02,6/6,0/18,GFDLDEYGIS,VIYADGMRTAYTDSVK,GNNAGTFDM,En_Gen
-0.28,6/6,0/18,GFDLDEYGIS,VIYADGIRTAYADSVK,GNVAGTFDV,En_Gen
no signal,0/6,0/18,GDGLKEYGIS,VIYADGMREAYVKDVK,GQTAGTFVL,En_Gibbs
no signal,0/6,1/18,GFTLNDYGIS,VIYSDGRRTFYADSVK,GRAEGTFDL,Ctrl
-0.23,6/6,0/18,GFDLNEYGIS,VIYADGVRTAYADSVK,GEVAGTFDA,En_Gen
0.47,1/6,1/18,GFKLNEYGIS,VIYADGQRKSYADSFK,GTWAGMVIE,En_Gibbs
0.27,6/6,0/18,GFDLNSYGIS,VIYSDGRRTAYRDSVK,GRTAGTFDS,GP_Gibbs
0.85,3/6,0/18,GNTLNDYGIS,VIYSDGRRTFYTDSVK,GRTAGTFDS,GP_HC
no signal,0/6,0/18,GFDIQEYGIS,VIYADGMRVAYTNSVK,GTQGGSNIE,En_Gibbs
no signal,0/6,0/18,GFTLNQYGIS,VHYSDGRRTFYSDSVK,GRAAGFFDS,Rand
no signal,0/6,0/18,GFKLDEYGIS,VIYADGKRTAYADEVK,GGGTTDRGI,En_Gibbs
-0.07,6/6,0/18,GFELNDYGIS,VIYSDGRRTFYADSVK,GRTAGTFDS,GPLM_Gen
2.91,1/6,0/18,GFTMNSYGIS,VIYSDGRRTFYADSVK,GRAAGAFDS,Ctrl
-0.09,6/6,1/18,GFDLDEYGIS,VIYADGMRTAYADSVK,GHNAGTFDV,En_Gen
-1.06,6/6,0/18,GFDLNEYGIS,VIYADGRRTAYADSVK,GANAGTFDQ,En_HC
-0.27,6/6,0/18,GFDLNEYGIS,VIYADGMRTAYTDSVK,GENAGTFDM,En_Gen
2.32,1/6,0/18,GFTLNEYGIS,VIYSDGKRTFYGDSVK,GRTAGTFIS,GPLM_HC
0.59,5/6,0/18,GFQLNDYGIS,VIYSDGRRTFYGDSVK,GRMAGTFDS,GP_HC
-0.50,6/6,0/18,GFDLNSYGIS,VIYSDGRRTFYTDSVK,GKEAGTFDS,GP_Gen
-0.13,6/6,0/18,GFDLNEYGIS,VIYADGRRTQYADSVK,GNEAGTFDV,En_HC
0.39,6/6,0/18,GFDLNEYGIS,VIYSDGRRTFYDDSVK,GRFAGTFDS,GP_HC
1.05,2/6,0/18,GFELNSYGIS,VIYSDGCRTFYGDSVK,GREAGTGDS,Ctrl
1.82,6/6,0/18,GFTLNSYGIS,VIYSDGRRTFYVDSVK,GQVAGKFDS,GP_HC
no signal,0/6,0/18,GADLQEYGIS,VIYADGNRYAYTNSVK,GTQGGSLIV,En_Gibbs
2.04,3/6,0/18,GFTLKSYGIS,VIYSDGRRTFYSDSVK,GKLAGTFDS,GP_HC
1.34,2/6,0/18,GFDLNSYGIS,VIYSDGRRTFYLDSVK,GRAAGTFDI,Ctrl
1.37,4/6,0/18,GFTLADYGIS,VIYSDGRRNAYGDSVK,GKAAGTFDS,Ctrl

Excerpt, the first 5 entries:

| CDR-H1 | CDR-H2 | CDR-H3 | group | log10 Kd (nM), mean | seen in | signal with controls |
|---|---|---|---|---|---|---|
| GFPLNSYGIS | VIYADGRRTFYGDSVK | GRAKGTFDS | Ctrl | no signal | 0/6 | 2/18 |
| GFSLNEYGIS | VIYSDGRRTFYGDSVK | GRSAGTFDT | GPLM_Gibbs | 0.08 | 6/6 | 0/18 |
| GFDLNSYGIS | VIYSDGRRTFYGDSVK | GRAAGQFWS | GP_HC | no signal | 0/6 | 1/18 |
| GFTLNEYGIS | VIYSDGKRTQYMDSVK | GRAAGTFDS | GP_HC | no signal | 0/6 | 0/18 |
| GFELNSYGIS | VIYSDGRRTFYADSVK | GQTAGTFDA | GP_Gibbs | 0.46 | 6/6 | 0/18 |

The authors averaged sequences with at least three values out of six and counted those with two or fewer as poor binders. Nonspecific signal, from three strains lacking the peptide, appeared in 1% of pairings of all heavy chain designs, centred on 2.08 (5% of these signals below 0.84); values are not corrected for it. The control count says in how many pairings with the empty strains this scFv gave a signal. Values of this round are not directly comparable with the first-round values of the same sequences.

Reference: Li et al. 2023, doi:10.1038/s41467-023-39022-2. File: FLAb, binding data.